{
  "source": "patent US9480679B2",
  "about": "“Methods for treating malaria, tuberculosis and MAC diseases” (priority 2009, dated 2016)",
  "system": "P. berghei",
  "assay": "Murine P. berghei model, oral 1x or 4x 100 mg/kg",
  "assay_type": "in vivo",
  "conditions": "mice",
  "experimental": "EXAMPLE. CEM-101 activity in infected mice.\nEXAMPLE. CEM-101 was tested in the murine P. berghei model as described by Vennerstrom et al. Nature 430(7002):900-904 (2004), the disclosure of which is incorporated herein by reference.",
  "data": [
    {"smiles": "CCC[C@@H]1C[C@@H](C(=O)N[C@@H]([C@H]2O[C@H](SC)[C@H](O)[C@@H](O)[C@H]2O)[C@H](C)Cl)N(C)C1", "note": "[Clindamycin]", "values": [
      {"measurement": "Activity (%)", "setting": "1 × 100 mg/kg oral, DMSO", "result": 78.79, "unit": "%"},
      {"measurement": "Survival", "setting": "1 × 100 mg/kg oral, DMSO", "result": 7.0, "unit": "days"},
      {"measurement": "Activity (%)", "setting": "1 × 100 mg/kg oral, HPMC", "result": 79.06, "unit": "%"},
      {"measurement": "Survival", "setting": "1 × 100 mg/kg oral, HPMC", "result": 7.3, "unit": "days"},
      {"measurement": "Activity (%)", "setting": "4 × 100 mg/kg oral, DMSO", "result": 99.75, "unit": "%"},
      {"measurement": "Survival", "setting": "4 × 100 mg/kg oral, DMSO, survivors sacrificed on Day 31", "result": 18.3, "unit": "days"},
      {"measurement": "Activity (%)", "setting": "4 × 100 mg/kg oral, HPMC", "result": 99.59, "unit": "%"},
      {"measurement": "Survival", "setting": "4 × 100 mg/kg oral, HPMC, survivors sacrificed on Day 31", "result": 20.0, "unit": "days"},
      {"measurement": "survival increasing to Day", "setting": "P. berghei strain ANKA, 4×100 mg/kg", "result": 15, "unit": "days"}
    ]}
  ]
}
